From PubChem
Only some compounds are listed: those with a hit (about 1.5% of all), similar ones and a draw of the others.
Yeast UUG start: alters start codon recognition fidelity in yeast | S. cerevisiae UUG-firefly luciferase reporter, luminescence/redox ratio | activity score, % at 18.7 µM | hit rate 0.13% among 350,000 | AID 602363;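 active means replicate mean at a twofold rise or more, about +100% in these data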;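 further: firefly luciferase made from a UUG start codon reports start codon fidelity; reporter light over untreated wells divided by growth signal over untreated wells; some hits fall short of that in this replicate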
FN deposition inh: fibronectin deposition inhibition; AH1F fibroblasts, Alexa488-fibronectin deposition fluorescence, overnight; inhibition, % at 12.6 µM; hit rate 0.086% among 350,000;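 active = mean inhibition across replicates of 30% or more, regardless of how many single replicates reach that level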;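 also: positive control wells lacked labelled fibronectin entirely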
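Assay system: AH1F fibroblasts / Quantity: 10000 cells per well / Medium: DMEM plus 2% serum, read in PBS / Reagent: labelled fibronectin 24 nM / Dosing: single dose, pinned / Times: 1 h cell attachment, overnight exposure to compound and label / Signal: fluorescence, ex 485 nm, em 525 nm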
Cneo AK release: Cryptococcus neoformans lysis via adenylate kinase release. lysis activity, % at 15 µM. AID 651654. hit rate 0.2% among 360,000. C. neoformans lysis, adenylate kinase release luminescence, 4 h; normalised: neutral wells 0, clomiphene wells 100;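 active = mean lysis activity across replicates of at least 80%, whatever share of replicates individually reach that level; inactive = mean lysis activity below 80%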
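Test system: log-phase Cryptococcus neoformans yeast cells. Input: 5 × 10^6 yeast cells/mL. Medium: fresh YPD growth medium. Doses: single dose. Incubation: static 4 h at 37 °C with compound, 1 h detection. Measured by: luminescent adenylate kinase detection reagent. Read-out: signal increase indicating cell lysis. Benchmarks: Clomiphene.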
PGC1a acetyl inh: lowers PGC1a acetylation signal in U2OS cells. AlphaScreen anti-acetyl-lysine; with virally co-expressed GCN5 acetyltransferase. inhibition, % at 15.6 µM. hit rate 0.17% among 350,000. AID 651687;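 active = every replicate shows inhibition of at least 40%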;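 also: 0% = neutral control wells and 100% = positive control wells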
HIV Env fusion: inhibitors of HIV Env-mediated cell fusion | hit rate 1.1% among 360,000 | inhibition, % at 12.3 µM | AID 651610 | HeLa-JRFL Env/CEM21 cell fusion, luciferase;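 active = mean replicate inhibition score of at least 50 and every replicate individually at or above 50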;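 also: 0% = plate neutral controls and 100% = maraviroc near 300 nM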
miR122 inh: inhibitors of miR-122 in Huh7 cells; AID 602342; hit rate 0.3% among 340,000; Huh7 miR-122 Renilla luciferase sensor, 48 h; neutral wells = 0, positive control = 100; activation (reporter increase), % at 12.5 µM;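 active = mean replicate activation score at least 90 and every replicate individually at or above 90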;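 also: higher luciferase means less miR-122 activity so hits act as miR-122 inhibitors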
* marks the source's active call; other numbers are inactive results; i = inactive; / = no result; [ ] = another dose, or the depositor's remark.

item | structure | Yeast UUG start | FN deposition inh | Cneo AK release
1 | CNC(=O)C[C@@H]1CC[C@@H]2[C@H](COC[C@@H](O)CN2C(=O)Nc2ccc3c(c2)OCO3)O1 | / | -16 | 113*
2 | CCNC(=O)C[C@H]1CC[C@@H]2[C@H](COC[C@@H](O)CN2C(=O)Nc2ccc3c(c2)OCO3)O1 | 1 | -1 | -7
3 | CCCNC(=O)Cc1ncn[nH]1 | -8 | 9 | -1
4 | Cc1ccc(C(=O)CCNc2ccc(Cl)cc2)o1 | -3 | / | -6
5 | Fc1ccc(-c2[nH]ncc2-c2nnnn2-c2ccccc2)c(F)c1 | -17 | -3 | 0
6 | CC(C)(C)OC(=O)C1=CC[C@@H](c2ccc(Cl)c(Cl)c2)N(S(=O)(=O)c2ccc(F)cc2)[C@H]1c1cccc(F)c1 | -7 | 2 | 0
7 | CC(C)(C)c1ccc(C(=O)CCCSC2=C(C#N)C(c3ccco3)C3=C(CCCC3=O)N2)cc1 (stereo not given) | -23 | -4 | -2
8 | CCOc1ccc(N/C(SCc2cccc([N+](=O)[O-])c2)=C(/C#N)C(N)=O)cc1 | / | -5 | /

item | PGC1a acetyl inh | HIV Env fusion | miR122 inh
1 | 3 | / | -3[16.7 µM]
2 | -1 | / | 4[16.7 µM]
3 | 7 | -40 | 14
4 | 8 | / | -1
5 | -5 | -10 | -7
6 | -11 | 93* | -4
7 | -13 | 79* | 29
8 | -34 | 15 | /

More results follow.
item | structure | Yeast UUG start | FN deposition inh | Cneo AK release
9 | N#CC(C#N)=C(Nc1ccc(F)cc1)SCc1cccc(F)c1 | / | 5 | /
10 | O=C(NC1CCCCC1)C(c1ccc2ncccc2c1)N(Cc1ccc2c(c1)OCO2)C(=O)c1ccc2c(c1)OCCO2 (stereo not given) | -7 | 10 | -3
11 | COc1cc(NC(=O)c2cc(S(=O)(=O)N3CCCCC3)ccc2N2CCOCC2)cc(OC)c1OC | 10 | -9 | -1
12 | COc1ccc(-c2nnc(Nc3nc4c(OC)cccc4s3)o2)cc1 | -21 | / | 0
13 | COc1ccc(-c2nnc(Nc3nc4c(OC)cccc4s3)o2)c(OC)c1 | -4 | -2 | -10
14 | CC(NC(=O)C(=S)N1CCN(C)CC1)c1ccccc1 (stereo not given) | 0 | / | -1
15 | Cc1ccc(NC(=S)NCc2ccc(Cl)cc2)c(OC(F)F)c1 | -29 | 1 | 344*
16 | Cc1ccccc1NC(=S)NCc1ccc(F)cc1 | -6 | 3 | 0

item | PGC1a acetyl inh | HIV Env fusion | miR122 inh
9 | / | 61* | /
10 | 96* | 2 | 0
11 | 6 | / | 5
12 | 3 | 72* | 17
13 | 2 | 39 | 4
14 | -1 | 11 | -5
15 | / | -9 | /
16 | 1 | -2 | 3

(listing goes on)
item | structure | Yeast UUG start | FN deposition inh | Cneo AK release
17 | Cc1cc(Cl)ccc1NC(=S)NCc1ccc(F)cc1 | -26 | -1 | 93*
18 | Fc1ccccc1CNC(=S)NCc1ccc(Cl)cc1 | -24 | 5 | 194*
19 | Cc1cccnc1NC(=O)CCc1c[nH]c2ccccc12 | -4 | 0 | 3
20 | CC(C)c1nc2sc3c(c2c(=O)o1)CCCC3 | -18 | / | -3
21 | CCC(C)C(N)C1=NC(C(=O)N[C@@H](CC(C)C)C(=O)N[C@H](CCC(=O)[O-])C(=O)N[C@H](C(=O)N[C@H]2CCCCNC(=O)[C@H](CC(N)=O)NC(=O)[C@@H](CC(=O)[O-])NC(=O)[C@H](Cc3cnc[nH]3)NC(=O)[C@@H](Cc3ccccc3)NC(=O)[C@H]([C@@H](C)CC)NC(=O)[C@@H](CCCN)NC2=O)[C@@H](C)CC)CS1.[Zn+2] (stereo not given in full) | -1 | / | 2
22 | CCc1nc2ccc(C(=O)NCCN3CCNC3=O)cn2c1N(CC)Cc1cccc(Br)c1 | -23 | -7 | -1
23 | O=C(OCn1ncc(Cl)c(Cl)c1=O)c1ccccc1Cl | -35 | active | -3
24 | CC(C)(C)C(=O)Cn1ncc(Cl)c(Cl)c1=O | / | 9 | /

item | PGC1a acetyl inh | HIV Env fusion | miR122 inh
17 | -20 | 12 | 29
18 | / | / | /
19 | / | 1 | -3
20 | / | / | /
21 | 0 | / | 2
22 | / | 72* | 1
23 | / | i | -61
24 | / | -173 | /

4 entries from above, in transposed form:
#22 CCc1nc2ccc(C(=O)NCCN3CCNC3=O)cn2c1N(CC)Cc1cccc(Br)c1
#18 Fc1ccccc1CNC(=S)NCc1ccc(Cl)cc1
#23 O=C(OCn1ncc(Cl)c(Cl)c1=O)c1ccccc1Cl
#17 Cc1cc(Cl)ccc1NC(=S)NCc1ccc(F)cc1

| screen / no. | 22 | 18 | 23 | 17 |
| --- | --- | --- | --- | --- |
| Yeast UUG start | -23 | -24 | -35 | -26 |
| FN deposition inh | -7 | 5 | active | -1 |
| Cneo AK release | -1 | 194* | -3 | 93* |
| PGC1a acetyl inh | / | / | / | -20 |
| HIV Env fusion | 72* | / | i | 12 |
| miR122 inh | 1 | / | -61 | 29 |

The results go on:
item | structure | Yeast UUG start | FN deposition inh | Cneo AK release
25 | O=C(Cn1ncc(Cl)c(Cl)c1=O)c1ccc(Cl)cc1 | / | / | /
26 | CC1CCCCN1CC(=O)Nc1cc(S(=O)(=O)N2CCOCC2)ccc1N1CCCC1 (stereo not given) | / | 0 | /
27 | Cc1cccc(Cn2cnc3c(nnn3Cc3ccc(Cl)cc3)c2=O)c1 | 1 | 4 | 5
28 | CCCCN(C)C(=O)c1oc2ccc(S(=O)(=O)N3CCCCCC3)cc2c1C | 14 | 1 | 1
29 | CC(=O)c1cc2c(C)cc(=O)oc2cc1O | -17 | / | -1
30 | O=C1[C@H](Cc2ccccc2)NCC=CC[C@@H](c2ccc(Cl)cc2)N1Cc1ccc(Cl)cc1 | -4 | -3 | 19
31 | O=C1[C@H](Cc2ccccc2)NCC=CC[C@H](c2ccc(Cl)cc2)N1Cc1ccc(Cl)cc1 | -27 | -5 | 4
32 | O=C1[C@H](Cc2ccccc2)NCCCC[C@H](c2ccc(Cl)cc2)N1Cc1ccc(Cl)cc1 | -12 | -6 | -1

item | PGC1a acetyl inh | HIV Env fusion | miR122 inh
25 | 85* | -160 | -21
26 | / | 6 | /
27 | -7 | 60* | -3
28 | -6 | 61* | -2
29 | 17 | / | -7
30 | / | 15 | /
31 | 1 | 110* | -14
32 | -1 | 66* | -4

Later entries:
item | structure | Yeast UUG start | FN deposition inh | Cneo AK release
33 | COC(=O)C1=C(C(=O)OC)[C@]2([C@H]3CCCCN[C@@H](Cc4ccccc4)C(=O)N3Cc3ccccc3)C=C[C@H]1O2 | -19 | -32 | 4
34 | CC1CCCN(C(=S)Nc2ccc3nc4n(c(=O)c3c2)CCCCC4)C1 (stereo not given) | / | 2 | /
35 | COc1ccc(-c2nn(-c3ccccc3)cc2C(=O)Nc2cccc(S(=O)(=O)NC3=NCCC3)c2)cc1 | -2 | 10 | -1
36 | Cc1cccc(-c2nn(-c3ccccc3)cc2C(=O)Nc2cccc(S(=O)(=O)NC3=NCCC3)c2)c1 | -23 | -1 | 5
37 | CN(C)c1nc(NCc2ccccc2)nc(SCC(=O)Nc2ccc(Cl)c(Cl)c2)n1 | 18 | -10 | 20
38 | CC1CCCCC1NC(=O)C1CCN(C(=O)c2sccc2-n2cccc2)CC1 (stereo not given) | 16 | 3 | 3
39 | CCn1c(C(=O)N2CCCC(C(=O)NCCCc3ccccc3)C2)cc2sccc21 (stereo not given) | / | -2 | /
40 | CC(C)(C)NC(=O)C(c1ccncc1)n1c(=O)c(-c2cc3ccccc3[nH]2)nc2ccccc21 (stereo not given) | / | 0 | /

item | PGC1a acetyl inh | HIV Env fusion | miR122 inh
33 | / | 65* | /
34 | / | 13 | /
35 | -18 | / | 81
36 | 3 | 2 | 152*
37 | -3 | 57* | 5
38 | -2 | -29 | -8
39 | / | 66* | /
40 | / | 58* | /

(continued)
item | structure | Yeast UUG start | FN deposition inh | Cneo AK release
41 | COc1ccccc1N(CC(=O)NCc1ccco1)S(=O)(=O)c1ccc(C)cc1 | -5 | 4 | 2
42 | Cc1ccc(N(CC(=O)NCc2ccco2)S(=O)(=O)c2ccccc2)cc1 | 0 | 30* | 0
43 | Cc1ccc(S(=O)(=O)N(Cc2ccc(Cl)cc2)c2ccccc2C(=O)NCc2ccco2)cc1 | / | -9 | /
44 | CN(C)S(=O)(=O)c1cccc(COC(=O)c2cc([N+](=O)[O-])ccc2N2CCOCC2)c1 | / | 7 | /
45 | Cc1ccc(C(c2sc3ncnn3c2O)N2CCC(C)CC2)cc1 (stereo not given) | -11 | 24 | 4

item | PGC1a acetyl inh | HIV Env fusion | miR122 inh
41 | / | 11 | /
42 | -33 | -45 | 3
43 | / | 69* | /
44 | -1 | 18 | 7
45 | -6 | -65 | -6
